According to patent US11091546B2, “Optimized PNE-based chimeric receptor T cell switches and uses thereof” (The Scripps Research Institute, priority 2015, dated 2021):

Assays:
[1] = system: Her2 ECD and anti-GCN4 CAR-T cells; experiment: Crosslinking (ternary complex) between anti-GCN4 CAR-T cells and Her2 ECD; type: binding; settings: mean of duplicates ± SD
[2] = system: HCC1954 (Her2 3+); experiment: HCC1954 xenograft model; type: in vivo, NSG mice; settings: sCAR-T cells + 0.5 mg/kg every other day
Method: (§1) Ten days after cancer cell implantation in NSG mice, mice were i.v. injected with 30×10^6 CAR-T cells, followed by a dose of switch or wild type 4D5 Fab at 0.5 mg/kg every other day for 14 days. […] Tumor volume was calculated by W×L×H. Each data point represents tumor volume of five mice in each group. Error bars represent SD. Arrows indicate time of CAR-T cell injection or of treatment with specific antibodies.
(§2) FIGS. 42E-F show in vivo activity of sCAR-T cells with anti-HER2 switch. […] The experiments shown in FIG. 42E&F were conducted with 6 to 8-week-old female NSG mice. 5×10^6 of HCC1954 (HER2 3+) or MDA MB453 (HER2 2+) the human breast cancer cell lines in 50% Matrigel (BD Bioscience) were subcutaneously implanted into the right flank of mice. Ten days after tumor implantation, mice received 30×10^6 sCAR-T cells or the direct HER2 CAR-T cells (both with a transduction efficiency of 45-55%) via intra venous injection. […] Tumors were measured twice weekly using calipers. Tumor volume was calculated based on width×length×height.
(§3) To compare the in vivo antitumor ability of each optimized sCAR-T, their in vivo efficacies were evaluated in mouse xenograft models using Her2 3+ (HCC1954) and Her2 2+ (MDA MB453) breast tumors. […] Tumor growth was monitored for 50 days. […]

[3] = system: MDA MB231 (Her2 1+); experiment: Binding of GCN4 tagged anti-Her2 fusions on breast cancer cells (flow cytometry)
Excerpt: (§4) Replacing the long 45 amino acid CD8 hinge CAR region with a shorter 12 amino acid hinge derived from a dimeric mutant of the IgG4 hinge (IgG4m) improved anti-GCN4 sCAR-T cell activity in the context of targeting CD19 and CD20, putatively by reducing the overall distance between the sCAR-T cell and target cell (FIG. 44B). However, it is unknown if the increased activity of the IgG4m hinge can be extended to the Her2 antigen.

[4] = system: GCN4 specific CAR-T cells; experiment: Binding of anti-Her2 GCN4 switches to anti-GCN4 sCAR-T cells (CD8 and IgG4m hinge)
Method: The location of the two N-terminal and two C-terminal positions that were grafted with the PNE (GCN4) are indicated by P1, P3 (N-terminal) and P2, P4 (C-terminal). […] FIG. 44C show the relative distances between bivalent sites on the CTBV switch, as modeled over the 4D5 Fab structure (Protein Data Bank ID 1N8Z). Distance were calculated with UCSF Chimera 1.10.2. […] Cells were incubated with indicated switches and detected with Alexa Fluor647 conjugated anti-human kappa chain antibody. The EC50 value was calculated with Graphpad Prism software.
Cells were incubated with indicated switches and detected with Alexa Fluor647 conjugated anti-human kappa chain antibody.
Next, the capacity of sCAR-T cells with CD8 or IgG4m hinges to bind their corresponding anti-Her2 switches was tested. The GCN4 switches were used to stain anti-GCN4 sCAR-T cells, and detected with an APC-labeled anti-human kappa-chain antibody specific for the constant region at the Fab. […] Together with the target cell binding assay, we confirmed that PNE grafted fusions reserved the binding specificity to the target cells as well as the tag recognition of 4D5-based switch by the sCAR-T cells.

[5] = system: MDA MB453 (Her2 2+); experiment: MDA MB453 xenograft model; type: in vivo, NSG mice; settings: sCAR-T cells + 0.5 mg/kg every other day
Method: as §1, §2, §3

[6] = system: MDA MB453 (Her2 2+); experiment: Binding of GCN4 tagged anti-Her2 fusions on breast cancer cells (flow cytometry)
Excerpt: (§5) Bound switches were detected with an Alexa Fluor647 conjugated anti-human IgG (H+L) secondary antibody.
as §4

[7] = system: MDA MB468 (Her2 0); experiment: as above
Excerpt: as §5
(§6) However, it is unknown if the increased activity of the IgG4m hinge can be extended to the Her2 antigen.

[8] = system: SKBR3 (Her2 3+); experiment: as above
Excerpt: as §5, §6

[9] = system: MDA MB435 (Her2 1+); experiment: as above
Excerpt: as §5, §6

[10] = Anti GCN4 CAR-EC with CD8 hinge
[11] = Anti-GCN4 CAR-EC with IgG4m hinge

Row | Substance | Maximal binding [1, 10] | Maximal binding [1, 11] | tumor growth [2] | MFI (mean fluorescence intensity) [3] | Relative Binding Index (MFI of indicated antibody/MFI of anti-CD19 Fab) [3] | binding to sCAR-T cells [4] | tumor growth [5] | MFI (mean fluorescence intensity) [6] | Relative Binding Index (MFI of indicated antibody/MFI of anti-CD19 Fab) [6] | MFI (mean fluorescence intensity) [7] | MFI (mean fluorescence intensity) [8] | Relative Binding Index (MFI of indicated antibody/MFI of anti-CD19 Fab) [8] | MFI (mean fluorescence intensity) [9]
1 | anti-Her2 Fab NTBV: 4D5 anti-Her2 Fab, GCN4 on N-terminus of heavy and light chain | N.D./12.2 ± 1.1 MFI × 100 | N.D./31.4 ± 0.3 MFI × 100 |  |  |  |  |  |  |  |  |  |  | 
2 | Anti-Her2 Fab: wild type anti-Her2 4D5 Fab without peptide graft [reference compound] | N.D./2.9 ± 0.5 MFI × 100 | N.D./1.6 ± 1.0 MFI × 100 | no effect on tumor growth | 424 | 5 | failed to bind any sCAR-T cells | no effect on tumor growth | 8081 | 55 | 86 | 14306 | 95 | 245
3 | anti-Her2 Fab HCNT: 4D5 anti-Her2 Fab, GCN4 on heavy chain N-terminus | 50.6 ± 2.4 MFI × 100 | 46.6 ± 2.1 MFI × 100 |  |  |  |  |  |  |  |  |  |  | 
4 | anti-Her2 Fab HCCT: 4D5 anti-Her2 Fab, GCN4 on heavy chain C-terminus | 44.7 ± 3.1 MFI × 100 | 57.4 ± 1.2 MFI × 100 |  |  |  |  |  |  |  |  |  |  | 
